From patent US5559132A, “Carboxamide derivatives for treating asthma” (Zeneca Limited, priority 1993, dated 1996)

Chains of the proteins cited; added tags and fusions are not shown.
UniProt P21452, whole entry: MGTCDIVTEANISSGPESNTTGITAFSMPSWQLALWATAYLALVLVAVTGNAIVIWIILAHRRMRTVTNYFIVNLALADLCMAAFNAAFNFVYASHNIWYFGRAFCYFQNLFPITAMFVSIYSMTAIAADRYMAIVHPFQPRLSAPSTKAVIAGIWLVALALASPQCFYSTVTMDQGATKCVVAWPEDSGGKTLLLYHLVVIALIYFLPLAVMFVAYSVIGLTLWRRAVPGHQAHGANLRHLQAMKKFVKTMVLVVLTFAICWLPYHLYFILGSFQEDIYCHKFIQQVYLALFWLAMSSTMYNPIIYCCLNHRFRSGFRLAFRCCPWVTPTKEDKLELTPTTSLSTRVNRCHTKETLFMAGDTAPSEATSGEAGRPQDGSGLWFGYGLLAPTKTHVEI

Assays:
[1] = molecular target: T1, human NK2 receptor expressed in Mouse Erythroleukemia (MEL) cells (MELM) (Homo sapiens, UniProt P21452); assay: Binding of 3H-NKA to MELM (membrane characterization, equilibrium-competition)
T1 construct: expressed in transfected cells
Method: Human NK2 receptor cDNA was subcloned into a shuttle vector (pMEG3) containing the beta-globin promoter and the 3' portion of the human beta-globin gene (FIG. 1). […] An oligonucleotide linker-adaptor containing an internal Hind III site and a 3' end Eco 0109 site was ligated to the hNK2R cDNA fragment. […] These were annealed and ligated to the hNK2R fragment by standard methods. […] G418 was added to a concentration of 1 mg/mL 24 hours after the transfection to select for stable transfectants.

[2] = Method: Nonspecific binding is routinely defined with 1 μM NKA. […] The reaction is initiated by the addition of the membranes. […] The reaction is terminated by washing the tubes with 10 mL of ice-cold 50 mM Tris HCl using a Brandel cell harvesting system using Whatman GF/B filters which have been soaked at least 4 hours at room temperature in 0.01% (w:v) polyethylenimine to collect the membranes. The filters are deposited in scintillation vials and read in a Beckman LS 6000LL Scintillation Counter.

[4,5-3H-Leu9]-NKA [Example 3H-NKA]
specific binding of 3H-NKA to MELM ([1]; 3H-NKA 2.5 nM, typical membrane preparation): 88±4%
Bmax ([1]; 3H-NKA, equilibrium-competition experiments): 2229 fmol/mg protein
degradation or metabolism in the receptor-binding assay [2]: no degradation or metabolism is apparent
